Biological target: Phosphatidylinositol 3-kinase regulatory subunit alpha/4,5-bisphosphate 3-kinase catalytic subunit delta isoform (Homo sapiens, UniProt P27986+O00329)
Test: Inhibition of N-terminal His6-tagged recombinant full length human p110delta/untagged recombinant full length human p85alpha expressed in baculovirus infected Sf21 insect cells after 80 mins by fluorescence polarization assay

Protein sequences, listed by entry. Tags and fused reporters are not part of them. Lines headed by an entry give the natural chain unless they say otherwise; changes in a name come on top.
UniProt P27986, whole entry: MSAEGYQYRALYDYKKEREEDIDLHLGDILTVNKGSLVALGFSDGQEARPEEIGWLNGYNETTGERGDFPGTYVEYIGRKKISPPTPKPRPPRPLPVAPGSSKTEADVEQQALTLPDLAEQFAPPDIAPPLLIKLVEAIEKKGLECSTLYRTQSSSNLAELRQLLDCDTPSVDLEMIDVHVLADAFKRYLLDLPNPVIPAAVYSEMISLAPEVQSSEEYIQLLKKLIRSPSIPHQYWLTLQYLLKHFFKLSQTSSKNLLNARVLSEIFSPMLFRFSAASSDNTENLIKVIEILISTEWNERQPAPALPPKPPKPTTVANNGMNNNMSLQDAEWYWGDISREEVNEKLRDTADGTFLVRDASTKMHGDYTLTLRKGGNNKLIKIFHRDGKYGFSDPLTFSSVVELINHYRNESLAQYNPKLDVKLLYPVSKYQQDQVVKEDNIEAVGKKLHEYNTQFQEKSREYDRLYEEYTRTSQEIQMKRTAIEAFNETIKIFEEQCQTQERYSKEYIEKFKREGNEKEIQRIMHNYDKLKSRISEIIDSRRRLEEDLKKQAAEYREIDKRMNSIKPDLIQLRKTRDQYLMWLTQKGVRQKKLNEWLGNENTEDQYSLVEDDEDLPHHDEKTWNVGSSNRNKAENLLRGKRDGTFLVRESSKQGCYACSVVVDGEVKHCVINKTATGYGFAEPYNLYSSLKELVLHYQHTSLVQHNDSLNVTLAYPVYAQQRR
UniProt O00329: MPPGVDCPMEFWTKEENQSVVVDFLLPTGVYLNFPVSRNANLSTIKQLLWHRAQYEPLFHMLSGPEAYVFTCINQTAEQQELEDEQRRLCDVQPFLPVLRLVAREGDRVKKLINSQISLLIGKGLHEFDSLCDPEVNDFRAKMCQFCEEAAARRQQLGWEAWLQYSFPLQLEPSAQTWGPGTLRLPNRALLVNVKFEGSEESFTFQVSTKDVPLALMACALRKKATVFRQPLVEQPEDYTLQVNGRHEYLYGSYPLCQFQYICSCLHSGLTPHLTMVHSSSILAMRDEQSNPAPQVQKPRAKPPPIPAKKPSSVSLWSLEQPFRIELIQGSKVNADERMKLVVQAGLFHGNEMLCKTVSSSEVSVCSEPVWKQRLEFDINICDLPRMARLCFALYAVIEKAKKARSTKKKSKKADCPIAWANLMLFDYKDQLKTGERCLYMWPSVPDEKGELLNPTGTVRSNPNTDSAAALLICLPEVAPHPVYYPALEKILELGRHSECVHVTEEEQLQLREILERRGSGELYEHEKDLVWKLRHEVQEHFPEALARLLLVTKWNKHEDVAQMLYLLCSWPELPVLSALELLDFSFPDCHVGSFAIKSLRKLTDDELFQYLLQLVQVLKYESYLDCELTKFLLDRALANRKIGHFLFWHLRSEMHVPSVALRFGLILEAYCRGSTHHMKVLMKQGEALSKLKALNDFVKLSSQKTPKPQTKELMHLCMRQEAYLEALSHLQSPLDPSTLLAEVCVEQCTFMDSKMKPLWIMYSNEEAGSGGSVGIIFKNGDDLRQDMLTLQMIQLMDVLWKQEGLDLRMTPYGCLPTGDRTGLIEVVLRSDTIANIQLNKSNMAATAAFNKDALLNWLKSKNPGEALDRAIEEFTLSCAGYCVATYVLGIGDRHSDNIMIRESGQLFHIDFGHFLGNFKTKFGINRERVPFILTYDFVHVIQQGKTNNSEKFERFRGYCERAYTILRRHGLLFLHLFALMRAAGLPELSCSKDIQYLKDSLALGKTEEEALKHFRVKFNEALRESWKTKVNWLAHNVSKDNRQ

Compound: C[C@H](Nc1ncnc(N)c1C#N)c1cc2ncc(Cl)n2nc1-c1ccccc1 [US10208066, Compound 4]
- IC50: 0.3 nM

Reference: BindingDB's records for doi:10.1021/acs.jmedchem.8b01298 (Astrazeneca, 2019)
